# HCMV UL50-53 inh – cytomegalovirus nuclear egress complex inhibition | HTRF UL50-UL53 interaction, normalized percent inhibition | actives 0.15% (n = 190,000) | inhibition, % (no concentration beside the values) | AID 1918969; in the data active = inhibition above about 27%, passing the limit was not always enough
# GIV Gai3 FP – inhibitors of GIV GBA-motif binding to rat Galpha-i3; P08753; Galpha-i3/FITC-GIV peptide fluorescence polarization, 90 min; hits give low values; scaled: aluminum fluoride 0%, vehicle 100%; percent of control (FP), % (no concentration beside the values); hit rate 0.42% among 210,000; AID 1224905;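 active = replicate mean at 85% of control or lower, very high polarization wells dropped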;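 note: wells of about 15 µL received 100 nL stock; the first replicate is given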
# GIV-Gai FP conf – GIV-Galpha-i3 inhibition, FP confirmation | fluorescence polarization, mP at 100 µM | actives 38% (n = 580) | shares compounds with GIV Gai3 FP | FITC-GIV peptide binding to Galphai3, fluorescence polarization; active compounds read low | AID 1259350;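 active = inhibition score of 15 or more, meaning 100 minus mean polarization as percent of control over three replicates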;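 note: lower mP means peptide displaced from Galphai3 so more inhibition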
# GIV-Gai AS conf – GIV-Galpha-i3 inhibition, AlphaScreen confirmation; AlphaScreen Galphai3-GIV binding, purified proteins, 90 min; active compounds read low; shares compounds with GIV Gai3 FP; actives 39% (n = 580); AlphaScreen counts at 100 µM;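 active = inhibition score at or above a set limit, where the score is 100 minus the three-replicate mean percent of control signal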
# * hit, by the source's call; / = not tested or not shown. Shown is part of a subset that was picked to be rich in hits.
mol | HCMV UL50-53 inh | GIV Gai3 FP | GIV-Gai FP conf | GIV-Gai AS conf
N#Cc1c(/N=C/c2ccc(Cl)cc2)oc(-c2ccccc2)c1-c1ccccc1 | / | 109 | / | /
N#Cc1c(/N=C/c2ccc3c(c2)OCO3)oc(-c2ccccc2)c1-c1ccccc1 | 7 | 84* | 74 | 31432
O=C(Cc1ccccc1Cl)NC1(O)C(=O)c2ccccc2C1=O | 31 | 70* | 59 | 49874
CN1CCN(NC(=O)Cc2ccccc2Cl)CC1 | -2 | 106 | / | /
COC(=O)CSc1nc2c(-c3ccccc3)c[nH]c2c(=O)[nH]1 | -9 | 106 | / | /
O=C(O)CCC(=O)Nc1nc2n(n1)C(c1ccc(Cl)cc1)C=C(c1ccccc1)N2 (stereo not drawn) | -75 | 63* | 44* | 2477*
O=C(O)CCCC(=O)Nc1nc2n(n1)C(c1ccc(Cl)cc1)C=C(c1ccc(Cl)cc1)N2 (stereo not drawn) | -63 | 104 | / | /
CC(C)(C)c1cc(Cc2ccc(O)c(O)c2)cc(C(C)(C)C)c1O | -15 | 105 | / | /
COC(=O)c1ccc(-c2c3c(nc4nc(N)[nH]c(=O)c24)-c2ccccc2C3=O)cc1 | -75 | 75* | 75 | 26602
CCOC(=O)c1c(C)nc2c(c1-c1ccc(OC)c(OC)c1)C(=O)c1ccccc1-2 | -22 | / | / | /
O=c1[nH]c2ccccc2nc1NCc1ccccc1 | -29 | 100 | / | /
Nc1nc(NCc2ccccc2)c(I)c(=O)[nH]1 | 66* | 50* | 46* | 2457*

# With a hit mark in GIV Gai3 FP, of those listed so far:
canonical_smiles	GIV Gai3 FP	GIV-Gai FP conf	GIV-Gai AS conf
N#Cc1c(/N=C/c2ccc3c(c2)OCO3)oc(-c2ccccc2)c1-c1ccccc1	84*	74	31432
O=C(Cc1ccccc1Cl)NC1(O)C(=O)c2ccccc2C1=O	70*	59	49874
O=C(O)CCC(=O)Nc1nc2n(n1)C(c1ccc(Cl)cc1)C=C(c1ccccc1)N2 (stereo not drawn)	63*	44*	2477*
COC(=O)c1ccc(-c2c3c(nc4nc(N)[nH]c(=O)c24)-c2ccccc2C3=O)cc1	75*	75	26602
Nc1nc(NCc2ccccc2)c(I)c(=O)[nH]1	50*	46*	2457*

# Going on with the list.
mol | HCMV UL50-53 inh | GIV Gai3 FP | GIV-Gai FP conf | GIV-Gai AS conf
CCOCCCNC1=NCCNC12CCCCC2 | / | 100 | / | /
O=C(N=Nc1c2ccccc2c2nc3no[nH]c3nc12)c1ccccc1O | -10 | 77* | 66 | 12405*
O=C(N=Nc1c(O)[nH]c(=O)[nH]c1=O)c1ccccn1 | -19 | 105 | / | /
Cc1cc(Cl)c(S(=O)(=O)NCc2ccco2)cc1OCC(=O)NC1CCCCC1 | 2 | 111 | / | /
CCOC(=O)c1sc2nc[nH]c(=O)c2c1C | / | 103 | / | /
CCOC(=O)c1cccc(NC(=O)c2sc3nc[nH]c(=O)c3c2C)c1 | / | 92 | 78 | 34553
CCN1CCCc2cc(O)ccc21 | -5 | -9.7* | 8.3* | 5580*
CC(C)N1CCCc2cc(CN)ccc21 | 26 | / | / | /
CNC(=O)NC(=O)CN1CCCc2cc(C)ccc21 | -29 | / | / | /
CCCN1CCCc2cc(CN)ccc21 | -13 | 65* | 51* | 9116*
Cc1cccc(NC(=O)C(Cc2c[nH]c3ccccc23)NC(=O)Oc2ccccc2)c1 (stereo not drawn) | / | 102 | / | /
CCOC(=O)c1ccccc1NC(=O)c1nn(-c2ccc(F)cc2)c(=O)cc1OC | -15 | 105 | / | /
CN1C(=O)/C(=C\c2ccc(-c3ccc(S(N)(=O)=O)cc3)o2)c2ccccc21 | -34 | / | / | /
CC1(C)OC(=O)C(=Cc2ccc(-c3ccc(S(N)(=O)=O)cc3)o2)C(=O)O1 | -42 | 87 | 67 | 4423*
Cc1cccc(C(CC(=O)Nc2nc(C)cs2)n2cccc2)c1 (stereo not drawn) | -31 | 100 | / | /
O=C(/C=C/c1ccco1)/C=C/c1ccco1 | / | 45* | 61 | 42048
O=C(/C=C/c1ccccc1)/C=C/c1ccco1 | 10 | 120 | / | /
O=C1Nc2cc(C(=O)N3CCCC3)ccc2S/C1=C\c1ccccc1 | / | 107 | / | /
CC(=O)C1=NN(c2ccccc2Cl)C2(S1)c1ccccc1C(c1ccc(Cl)cc1)=NN2c1ccccc1 (stereo not drawn) | / | 104 | / | /
CC(=Nc1ccccc1Br)c1sc2ccccc2c1O | -23 | 72* | 62 | 63874
CC(=Nc1ccccc1O)c1sc2ccccc2c1O | -59 | 127 | / | /
Cc1ccc(C)c(S(=O)(=O)N/N=C/c2ccc3c(c2)OCO3)c1 | -20 | / | / | /
CCn1cc(C(=O)NN)c(=O)c2cc(F)c(NN)cc21 | / | 97 | / | /
Cc1cccc(S(=O)(=O)N2CCN(c3cc(N4CCN(C)CC4)nc(C)n3)CC2)c1 | -17 | 99 | / | /
CCCN1CC=C2C(C#N)=C(N)C(C#N)(C#N)C(c3ccc(OCC(N)=O)cc3)C2C1 (stereo not drawn) | -19 | 85* | 71 | 23647
CCCN1CC=C2C(C#N)=C(N)C(C#N)(C#N)C(c3ccc(OC)cc3)C2C1 (stereo not drawn) | / | 111 | / | /
CCOCCCNC(=O)Cn1cc2c(n1)-c1c(oc(C(=O)N3CCCC3)c1C)CC2 | / | 97 | / | /
COCCNC(=O)Cn1cc2c(n1)-c1c(oc(C(=O)N3CCCC3)c1C)CC2 | / | 70* | 66* | 26569
Cc1cccc(CNC(=O)c2oc3c(c2C)-c2nn(Cc4cccc(Cl)c4)cc2CC3)c1 | 8 | 101 | / | /
CC(=O)Nc1ccc(NC(=O)c2oc3c(c2C)-c2nn(Cc4ccccc4Cl)cc2CC3)cc1 | 0 | 99 | / | /
CCn1cc2c(n1)-c1c(oc(C(=O)NCc3cccnc3)c1C)CC2 | / | 83* | 53 | 10636*
CCn1cc2c(n1)-c1c(oc(C(=O)Nc3ccc(Cl)cc3)c1C)CC2 | / | 81* | 54 | 16212*
COc1ccc(Cl)cc1NC(=O)CN1CCCC(c2nnc(SC)n2C(C)C)C1 (stereo not drawn) | -3 | 99 | / | /
FC(F)(F)c1cc(-c2ccc(Cl)cc2)n[nH]1 | -3 | 104 | / | /
COc1ccc(Nc2nc(C(=O)N3CCC(Cc4ccccc4)CC3)cs2)cc1 | -10 | 101 | / | /
Cn1c(CN(c2ccc(F)cc2)S(C)(=O)=O)nnc1SCC(=O)Nc1ccc(F)cc1F | -8 | 102 | / | /
CCOc1ccc(-c2nonc2NC(=O)C(C)Oc2ccc(F)cc2)cc1C (stereo not drawn) | -16 | 84* | 66 | 40925
CCOc1ccc(-c2nonc2NC(=O)C(C)Oc2ccc(CC)cc2)cc1C (stereo not drawn) | 0 | 105 | / | /
COC(=O)c1ccc2c(=O)n(CCC3=CCCCC3)c(SCC(=O)C(C)(C)C)nc2c1 | / | 104 | / | /
Cc1ccc(NC(=O)C(Cc2c[nH]c3ccccc23)NC(=O)C(c2ccccc2)c2ccccc2)cc1 (stereo not drawn) | -9 | / | / | /
C#CC1(O)c2ccccc2CCc2ccccc21 | -37 | 109 | / | /
COc1ccc(N2C(=O)NC(=O)/C(=C\c3ccc(OCC(=O)O)c(Br)c3)C2=O)cc1 | -17 | 96 | / | /
COc1ccc(N2C(=O)/C(=C/c3ccc(OCC(=O)O)c(Br)c3)C(=O)NC2=S)cc1 | -34 | 78* | 45* | 20466*
O=C1CCCN1CCCNc1nc2ccccc2n2cnnc12 | 1 | 100 | / | /
Cn1cc(/C=C/c2nc3ccccc3c(=O)n2-c2ccc([N+](=O)[O-])cc2)c2ccccc21 | -20 | 102 | / | /
Cc1ccc(-n2c(/C=C/c3c(C)n(C)c4ccccc34)nc3ccccc3c2=O)cc1 | -24 | 88 | 76 | 36423
C/C(=N/N1CCN(c2ccccc2)CC1)c1ccccc1 | -22 | 85* | 79 | 33751
C/C=C(\C)CN1CCN(c2ccccc2)CC1 | 10 | 108 | / | /
CC(C)OCCCNC(=O)c1ccc2c(=O)n(Cc3ccco3)c(SCc3ccc([N+](=O)[O-])cc3)nc2c1 | / | 108 | / | /
CCOC(=O)C1=C(C)N(CCOC)C(=O)/C1=C\c1ccc(N(C)C)cc1 | -81 | 64* | 85 | 19702*
CCN1C(=O)/C(=C\c2ccc(OC)cc2)C(C(=O)OC)=C1C | -12 | / | / | /
O=C(NCc1c(-c2ccc(F)cc2)nc2n1CCS2)c1ccc(F)cc1 | / | 98 | / | /

# Looked up by structure from above:
mol | HCMV UL50-53 inh | GIV Gai3 FP | GIV-Gai FP conf | GIV-Gai AS conf
O=C(NCc1c(-c2ccc(F)cc2)nc2n1CCS2)c1ccc(F)cc1 | / | 98 | / | /
CCOC(=O)C1=C(C)N(CCOC)C(=O)/C1=C\c1ccc(N(C)C)cc1 | -81 | 64* | 85 | 19702*
